# Yeast mating assay B: variants of the scFv Ab-14

The measurements come from Li et al. 2023 (doi:10.1038/s41467-023-39022-2) through the FLAb antibody collection.

Antigen: PDVDLGDISGINAS, a 14-residue peptide of the SARS-CoV-2 spike HR2 region.

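The starting antibody came from a phage panning campaign against this peptide. Designed CDR sequences, proposed from the first random library and measured here. Several design methods are mixed in this list. In AlphaSeq, yeast of one mating type display the scFv and yeast of the other type display the target. After mating in shaken culture at 30 °C for 16 h, diploids were selected and their barcode pairs sequenced. A regression on co-assayed BCL2-family reference pairs converts the normalised counts of each replicate to an apparent Kd. Mating was done six times.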

Parent: Ab-14, a human scFv built as VH, a 15-residue (Gly4Ser)3 linker, VL. Only the CDRs of the heavy chain vary.
VH: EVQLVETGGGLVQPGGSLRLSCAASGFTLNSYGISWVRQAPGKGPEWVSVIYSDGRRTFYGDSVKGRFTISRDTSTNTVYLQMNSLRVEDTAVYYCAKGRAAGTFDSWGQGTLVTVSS
VL: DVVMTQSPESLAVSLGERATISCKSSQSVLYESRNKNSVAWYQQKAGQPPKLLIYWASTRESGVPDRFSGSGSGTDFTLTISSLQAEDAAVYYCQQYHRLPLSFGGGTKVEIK

Each variant is given by its three heavy chain CDRs, as the data file delimits them; those of the parent are GFTLNSYGIS, VIYSDGRRTFYGDSVK, GRAAGTFDS. The Kd shown is the geometric mean over detected replicates; a lower Kd is a better binder. Where no diploid with the target was found in any replicate, the entry reads "nd": below detection, most likely a poor binder, though not proof of it. Three control strains display no target. For all heavy chain designs, 1% of the pairings with them gave a signal, with a median of 120 nM and one signal in twenty below 7.0 nM, so weak values seen in few replicates may be background.

| CDR-H1 | CDR-H2 | CDR-H3 | apparent Kd | seen in |
|---|---|---|---|---|
| GFSLNSYGIS | VIYSDGRRTFYADSVK | GREAGTFDN | 2.4 nM | 6/6 |
| GFTLNSYGIS | VIYSDGKRTFYIDSVK | GRTAGTFDS | nd | 0/6 |
| GFSLNSYGIS | VIYSDGKRTFYADSVK | GKAAGTFDS | 520 pM | 6/6 |
| GFQLNSYGIS | VIYSDGRRTFYQDSVK | GEAAGTFDS | 20 nM | 5/6 |
| GFDLNSYGIS | VIYSDGRRTAYGDSVK | GRTAGTFDS | 1.1 nM | 6/6 |
| GFELNSYGIS | VIYADGRRTFYGDSVK | GKAAGTFDM | 560 pM | 6/6 |
| GFTLTSYGIS | VIYSDGRRTSYGDSVK | GRADGTFDS | nd | 0/6 |
| GFTLNEYGIS | VIYSDGRRTAYTDSVK | GRFAGTFDP | nd | 0/6 |
| GFDLNEYGIS | VIYADGQRTAYADSVK | GNTAGTFDV | 490 pM | 6/6 |
| GFTLNSYGIS | VIYSDGRRTAYGDQVK | GRAAGTFDS | 17 nM | 5/6 |
| GFELNSYGIS | VIYSDGRRTFYKDSVK | GKVAGTFDS | 3.6 nM | 6/6 |
| GFTLNDYGIS | VIYSDGRRTFYGDSVK | GRQAGTFII | nd | 0/6 |
| GFDLNEYGIS | VIYADGMRTAYVDNVK | GEVAGTFDQ | 480 pM | 6/6 |
| GFELNEYGIS | VIYSDGRRTFYGDMVK | GRTAGTFDS | 1.5 nM | 6/6 |
| GFNLDEEGIS | VIYADGVRTAYINNVK | GYLDGYMTD | nd | 0/6 |
| GFDLDEYGIS | VIYADGQRTAYADSVK | GTNAGTFDT | 970 pM | 6/6 |
| GFTLNSYGIS | VIYADGRRTFYGDSVK | GRAADTNES | nd | 0/6 |
| GFDLNEYGIS | VIYADGRRTAYIDSVK | GHAAGTFDL | 830 pM | 6/6 |
| GFTLGSYGIS | VIYSDGRRTFYGDEVK | GRNAVTFDS | nd | 0/6 |
| GFDLEDYGIS | VIYADGRRTAYADSVK | GNVAGTFDQ | 710 pM | 6/6 |
| GFTLNSYGIS | VIYSDGRRTFYSDSVK | GVAGGTFDL | 31 nM | 5/6 |
| GFNLDEYGIS | VIYADGVRKAYANSVK | GKVHWFHLQ | nd | 0/6 |
| GFDLDEYGIS | VIYADGVRTAYADDVK | GNNAGTFDV | 340 pM | 6/6 |
| GFTLNSYGIS | VIYSDGRRTFYSDSVK | GREAGTFMS | nd | 0/6 |
| GFTLNKYGIS | VIYSDGFRTFYGDSVK | GRAHGTFCS | nd | 0/6 |
| GFTLNDYGIS | VIYSDGRRQFYIDSVK | GRAAGTFDS | 10 nM | 6/6 |
| GFDLNEYGIS | VIYADGSRTAYVDSVK | GEVAGTFDV | 370 pM | 6/6 |
| GADLNEYGIS | VIYADGRSTYYANSFK | GHNAGTFNS | nd | 0/6 |
| GFELNSYGIS | VIYSDGRRTFYQDSVK | GQNAGTFDS | 25 nM | 6/6 |
| GFNLNSYGIS | VIYSDGRRTFYKDSVK | GNAAGTFDS | 7.6 nM | 6/6 |
| GFDLEDYGIS | VIYADGMRTAYADSVK | GEVAGTFDT | 850 pM | 6/6 |
| GFDLNSYGIS | VIYSDGRRTMYGDSVV | GVACGTFDS | 95 nM | 6/6 |
| GFDLNEYGIS | VIYADGRRTQYIDSVK | GNEAGTFDS | 680 pM | 6/6 |
| GFDLNEYGIS | VIYADGSRTAYVDSVK | GQNAGTFDV | nd | 0/6 |
| GFDLDEYGIS | VIYADGMRTVYSDSVK | GENAGTFDV | 530 pM | 6/6 |
| GFTLNDYGIS | VIYSDGRRTFYGDSVK | GRLAGTFDK | 22 nM | 5/6 |
| GFDLNEYGIS | VIYADGRRQFYADSVK | GNQAGTFDV | 570 pM | 6/6 |
| GFSLNSYGIS | VIYSDGRRTFYCDSVK | GMLAGTFDS | 62 nM | 5/6 |
| GFTLNSYGIS | VIYSDGRRTFYGPSVK | GQAAGTYDS | nd | 0/6 |
| GFDLDEYGIS | VIYADGRRTFYQDSVK | GENAGTFDQ | 13 µM | 1/6 |
| GFNLNSYGIS | VIYSDGRRTFYGDSVK | GNQAGTFDS | 1.5 nM | 6/6 |
| GFDLNEYGIS | VIYADGKRTFYADSVK | GTNGGTFDV | 890 pM | 6/6 |
| GFWLNSYGIS | VIYSDGRRTFYKDSVK | GQAAGTFDL | 52 nM | 1/6 |
| GFNLEDYGIS | VIYADGRRTFYQDSVK | GKVAGTFDV | 370 pM | 6/6 |
| GESLDEYGIS | VIYADGQRVQYSNNVK | GLHFGVFDM | nd | 0/6 |
| GFWLNEYGIS | VIYSDGRRTFYGDSVK | GQAAGTFDS | 72 nM | 2/6 |
| GFTLNDYGIS | VMYSDGRRTQYIDSVK | VRAAGTFDS | nd | 0/6 |
| GFSLNSYGIS | VIYSDGRRTFYADSVK | GKLAGTFDS | 1.1 nM | 6/6 |
| GFDLNEYGIS | VIYADGMRTAYADSVK | GENAGTFNV | 730 pM | 6/6 |
| GFTLNSYGIS | VIYADGRRTFYGDSVK | GREQGTFDS | 53 nM | 1/6 |
| GFELNEYGIS | VIYSDGRRTFYGDSVK | GEAAGTFDV | 1.2 nM | 6/6 |
| GFALNEYGIS | VIYSDGRRTYYGDSVK | GRAAGTFDS | 11 nM | 5/6 |
| GFTLNEYGIS | VIYSDGRRTFYGDAVK | GRCAGTFDS | 110 nM | 3/6 |
| GFSLNEYGIS | VIYSDGRRTFYGDSVK | GREAGTFDA | 540 pM | 6/6 |
| GFDLNEYGIS | VIYADGMRTAYSDNVK | GNQAGTFDV | 210 pM | 6/6 |
| GFDIEEYGIS | VIYADGQRTMYTPNVK | GNHTGLVDI | nd | 0/6 |
| GFDLDEYGIS | VIYADGGRVSYAQNVK | GLVGKGGVV | nd | 0/6 |
| GFTANEYGIS | VMYSDGRRTFYGGSVK | GRAAVTFDQ | nd | 0/6 |
| GFDLNEYGIS | VIYADGRRTAYADNVK | GNNAGTFDV | 3.2 nM | 6/6 |
| GFTLNSYGIS | VIYSDGRRTFYLDSVK | GGAEGTFDS | nd | 0/6 |
| GFTLNMYGIS | VIYSDGRRTFYADSVV | GRAAGTFDS | 26 nM | 6/6 |
| GFNINEYGIS | VIYADGTRTAYANTVK | GKYVDTFVD | 3.5 µM | 1/6 |
| GFDLDEYGIS | VIYADGQRTAYTDSVK | GNVAGTFDT | 420 pM | 6/6 |
| GFTLNSYGIS | VIYSDGKRTFYGDSVK | GWAAGTFDL | 260 nM | 1/6 |
| KFTLNSYGIS | VIYSDGRRTFYGDSVK | GRGAGTFDS | 200 nM | 2/6 |
| GFTLNDYGIS | VIYSDGRRTFYSDSVK | GRAAGTFDS | 5.2 nM | 12/12 |
| GFSLNSYGIS | VIYSDGRRTFYGDDVK | GSTAGTFDS | 610 pM | 6/6 |
| GFNLNEYGIS | VIYADGMRTVYADSVK | GQIAGTFDV | 580 pM | 6/6 |
| GFTLNEYGIS | VIYSDGRRTFYGDSVK | GRAAGTFKI | nd | 0/6 |
| GFDLNEYGIS | VIYADGLRTFYTDSVK | GENAGTFDV | 420 pM | 6/6 |
| GFDLNEYGIS | VIYADGQRTFYADSVK | GNLAGTFDQ | 440 pM | 6/6 |
| GFDLNSYGIS | VIYSDGRRTFYADDVK | GEAAGTFDS | 2.0 nM | 6/6 |
| GTDHNSYGIS | VIYSDGRRTFYGDALK | GDAAGQFNS | nd | 0/6 |
| GFDLDEYGIS | VIYADGKRTAYADSVK | GQVAGTFDL | 1.1 nM | 6/6 |

The 5 strongest on average among those seen in every replicate, once more:

| CDR-H1 | CDR-H2 | CDR-H3 | apparent Kd | seen in |
|---|---|---|---|---|
| GFDLNEYGIS | VIYADGMRTAYSDNVK | GNQAGTFDV | 210 pM | 6/6 |
| GFDLDEYGIS | VIYADGVRTAYADDVK | GNNAGTFDV | 340 pM | 6/6 |
| GFDLNEYGIS | VIYADGSRTAYVDSVK | GEVAGTFDV | 370 pM | 6/6 |
| GFNLEDYGIS | VIYADGRRTFYQDSVK | GKVAGTFDV | 370 pM | 6/6 |
| GFDLNEYGIS | VIYADGLRTFYTDSVK | GENAGTFDV | 420 pM | 6/6 |

Where one sequence has several entries in the source, the replicates are pooled. In the paper, a design with two or fewer of six values counts as a poor binder. The range of this assay differs from that of the first round, and the authors advise against merging the two.